Literature values, collected in patent US20230085549A1 (Janssen Pharmaceutica NV, priority 2021, published 2023).

System: pregnant women
Details: 1566 women exposed in first trimester, cited from earlier work

In the case of `Cc1nc2n(c(=O)c1CCN1CCC(c3noc4cc(F)ccc34)CC1)CCCC2` [risperidone], the “risk of cardiac malformations (RR)” value (95% CI 0.88-1.81) is given as 1.26 and the “risk of major birth defects (RR)” value (95% CI 1.02-1.56) is given as 1.26.
